Calls of active or inactive are those of the source. No cut-off for these calls is given here.
Tests used:
[1] = molecular target: Mu-type opioid receptor (Homo sapiens) (UniProt P35372); assay: Agonist activity at human recombinant MOP receptor expressed in CHO-K1 cells assessed as stimulation of [35S]GTPgammaS binding by scintillation proximity assay relative to DAMGO
[2] = molecular target: Nociceptin receptor (Homo sapiens) (UniProt P41146); assay: Agonist activity at human recombinant NOP receptor expressed in CHO-K1 cells assessed as stimulation of [35S]GTPgammaS binding by scintillation proximity assay relative to nociceptin
Mus musculus [3] = assay: Antinociceptive activity in iv dosed NMRI mouse assessed as increase in latency for tail withdrawal from radiant heat source by tail flick test
Mus musculus [4] = assay: Antinociceptive activity in CD1 mouse model of streptozotocin induced diabetic polyneuropathy assessed as reduction in thermal hyperalgesia at 2.1 nmol/kg, iv by hot plate test
Mus musculus [5] = assay: Antinociceptive activity in orally dosed NMRI mouse assessed as increase in latency for tail withdrawal from radiant heat source by tail flick test
Mus musculus [6] = assay: Antinociceptive activity in CD1 mouse assessed as reduction in thermal hyperalgesia at 2.1 nmol/kg, iv by hot plate test

The chains behind the UniProt entries cited, without tags or fusion partners. Where a name states a change or a piece, a line headed by the entry shows the natural chain unless it says otherwise.
UniProt P35372, whole entry, looked up: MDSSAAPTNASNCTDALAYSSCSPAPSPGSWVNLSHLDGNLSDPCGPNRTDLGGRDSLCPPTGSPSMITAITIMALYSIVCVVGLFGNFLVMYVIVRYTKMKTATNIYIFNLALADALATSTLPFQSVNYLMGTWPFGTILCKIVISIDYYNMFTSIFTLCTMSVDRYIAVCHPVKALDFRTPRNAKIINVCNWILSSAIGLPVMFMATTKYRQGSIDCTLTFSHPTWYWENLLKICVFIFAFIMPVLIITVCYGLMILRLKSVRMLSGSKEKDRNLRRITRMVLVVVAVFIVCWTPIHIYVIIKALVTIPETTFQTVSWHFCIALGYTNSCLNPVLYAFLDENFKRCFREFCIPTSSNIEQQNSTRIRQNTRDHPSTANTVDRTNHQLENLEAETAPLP
UniProt P41146: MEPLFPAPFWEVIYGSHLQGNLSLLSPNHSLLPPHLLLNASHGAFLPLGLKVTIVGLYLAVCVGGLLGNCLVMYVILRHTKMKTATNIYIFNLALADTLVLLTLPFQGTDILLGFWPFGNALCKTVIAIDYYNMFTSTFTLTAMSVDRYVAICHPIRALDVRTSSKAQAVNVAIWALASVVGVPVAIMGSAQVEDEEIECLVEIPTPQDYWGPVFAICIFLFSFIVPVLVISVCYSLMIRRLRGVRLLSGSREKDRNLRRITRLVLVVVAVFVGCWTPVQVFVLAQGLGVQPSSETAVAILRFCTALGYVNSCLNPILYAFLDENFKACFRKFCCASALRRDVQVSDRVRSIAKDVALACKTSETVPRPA

`CN(C)[C@]1(c2ccccc2)CC[C@]2(CC1)OCCc1c3cc(F)ccc3[nH]c12` was tested, and the Efficacy [1] was 104%, the Efficacy [2] was 89% and the inhibition (Mus musculus [3]) was “Dose-dependent effect”. For the same molecule, the inhibition (Mus musculus [4]) was “Active”, the inhibition (Mus musculus [5]) was “Dose-dependent effect” and the inhibition (Mus musculus [6]) was “inactive”.

From ChEMBL document CHEMBL3352090, “Discovery of a Potent Analgesic NOP and Opioid Receptor Agonist: Cebranopadol” (2014)
